{"source": "patent US20040138241A1", "about": "“Novel use of arylethenesulfonamide derivative” (priority 2001, published 2004)", "key": {"[1]": {"test_system": "urethral pressure in anesthetized dogs", "assay": "ET-1 induced increase of urethral pressure in the presence of α1 receptor blocker in anesthetized dog", "conditions": "in vivo, iv", "experimental": "A urethral pressure profile (UPP) was recorded according to the same operation method as in Test Example 3 .\nThirty minutes thereafter, the same amount of tamsulosin hydrochloride (10 μg/kg i.v.) was again intravenously administered."}, "[2]": {"test_system": "urethral pressure in anesthetized dogs", "conditions": "dog, in vivo, 1 mg/kg", "description": "Male beagle dogs (body weight: from 8 to 13 kg) were subjected to artificial ventilation under the anesthesia with pentobarbital, a catheter was inserted into a left femoral artery for measurement of blood pressure and heart rate and a left femoral vein for administration of drug. A catheter for measurement of urethral pressure (from 8 to 10Fr, 2 holes, manufactured by Create Medic Co., Ltd.) was inserted from an external urethral meatus toward urinary bladder. An automatic syringe pump was connected with one end of the catheter, and a pressure transducer was connected with the other end thereof. […] At the same time, by drawing out the catheter from the urinary bladder into the external urethral meatus at a rate of 25 mm/min by an automatic drawing unit, the pressure was measured and recorded throughout urethra as a urethral pressure profile (UPP) as shown in FIG. 6.\nIn the blood pressure-response by ET-1 since the pressure increased after a transient reduction of pressure, measurement of the urethral pressure was started about 3 minutes after the administration. On the other hand, as phenylephrine hydrochloride caused an increase of pressure immediately after the administration, measurement of the urethral pressure was started immediately after the administration. […]"}, "[3]": {"test_system": "prostatic urethral pressure in anesthetized dogs", "conditions": "dog, in vivo, iv", "experimental": "After waiting for stabilization of hemodynamics following the operation, the balloon was fixed to the prostatic urethra and expanded, and a prostatic urethral pressure (PUP) was measured from a change in pressure within the balloon.\nET-1 (from 0.006 to 0.8 μg/kg i.a., molar concentration: from 0.0025 to 0.321 nmol/kg i.a.) and phenylephrine hydrochloride (from 0.06 to 8 μg/kg i.a.; molar concentration: from 0.307 to 39.3 nmol/kg i.a.) were locally administered, thereby comparing the dose-response curve of an increasing action of PUP by the drugs.\nIn the experiments, dogs in which a degree of increase of PUP was observed 40 cmH2O or more in the pre-contraction with phenylephrine hydrochloride (8 μg/kg i.a.) were used."}, "[4]": {"test_system": "isolated rabbit urethra preparations"}, "[5]": {"test_system": "patients with prostatic cancer accompanied with urinary dysfunction", "conditions": "human, in vivo, po"}, "[6]": {"test_system": "isolated rabbit prostate preparations"}, "[7]": {"test_system": "isolated rabbit bladder base preparations"}}}
{"smiles": "COc1ccccc1Oc1c(NS(=O)(=O)C=Cc2ccccc2)nc(-c2ncccn2)nc1OC", "note": "[Compound 1, N-[6-methoxy-5-(2-methoxyphenoxy)-2-(pyrimidin-2-yl)-pyrimidin-4-yl]-2-phenylethenesulfonamide]", "values": [{"measurement": "inhibition of increasing action of UPP by ET-1 in the presence of tamsulosin hydrochloride", "setting": "[1]", "result": "completely inhibited"}, {"measurement": "inhibition of increasing action of UPP due to intravenous ET-1", "setting": "[2]", "result": "completely inhibited"}, {"measurement": "IC50 value of inhibition of increase of PUP by ET-1", "setting": "[3]", "result": "0.13 ± 0.07", "unit": "mg/kg"}, {"measurement": "pA2 value against ET-1 induced contraction", "setting": "[4]", "result": 6.7}, {"measurement": "slope (Schild)", "setting": "[4]", "result": 0.82}, {"measurement": "Change of I-PSS: Deteriorated, number of cases/total number of cases", "setting": "[5]", "result": "0/10"}, {"measurement": "Change of I-PSS: Deteriorated, response rate", "setting": "[5]", "result": 0, "unit": "%"}, {"measurement": "Change of I-PSS: Improved, number of cases/total number of cases", "setting": "[5]", "result": "8/10"}, {"measurement": "Change of I-PSS: Improved, response rate", "setting": "[5]", "result": 80, "unit": "%"}, {"measurement": "Change of I-PSS: Not changed, number of cases/total number of cases", "setting": "[5]", "result": "2/10"}, {"measurement": "Change of I-PSS: Not changed, response rate", "setting": "[5]", "result": 20, "unit": "%"}, {"measurement": "reduction rate of I-PSS", "setting": "[5]", "result": "31.7 ±7.9", "unit": "%"}, {"measurement": "pA2 value against ET-1 induced contraction", "setting": "[6]", "result": 6.5}, {"measurement": "slope (Schild)", "setting": "[6]", "result": 1.54}, {"measurement": "pA2 value against ET-1 induced contraction", "setting": "[7]", "result": 6.6}, {"measurement": "slope (Schild)", "setting": "[7]", "result": 1.32}]}
